Measured values published in patent publication US8816122B2 (The Board of Trustees of the Leland Stanford Junior …, priority 2009, dated 2014).

Target: rat brain PKC isoform mixture
Format: binding

Structure (SMILES): CC(=O)O[C@@]12C[C@@H](C)[C@@]3(O)[C@@H](C=C(CO)C[C@]4(O)C(=O)C(C)=C[C@@H]34)[C@@H]1C2(C)C [Prostratin, C12-deoxy-C13-acetyl phorbol, reference compound]
- Ki: 0.05 µM
